# Yeast mating assay B: variants of the scFv Ab-14

The measurements come from Li et al. 2023 (doi:10.1038/s41467-023-39022-2) through the FLAb antibody collection.

All variants were tested on one target, the spike HR2 peptide PDVDLGDISGINAS (SARS-CoV-2).

Each scFv is VH, a 15-residue (Gly4Ser)3 linker, VL, as in the parent Ab-14, and differs from it in the CDRs of the heavy chain only.
VH: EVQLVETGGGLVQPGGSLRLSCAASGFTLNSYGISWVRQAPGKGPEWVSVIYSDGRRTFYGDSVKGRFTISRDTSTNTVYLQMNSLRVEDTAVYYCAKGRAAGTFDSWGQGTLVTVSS
VL: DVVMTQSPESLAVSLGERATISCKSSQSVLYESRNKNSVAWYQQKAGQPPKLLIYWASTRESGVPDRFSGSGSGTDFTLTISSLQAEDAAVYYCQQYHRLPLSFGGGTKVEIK

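The parent was found by panning a naive human phage display library on the peptide. These sequences belong to a second round, designed from the earlier measurements on random variants of the parent. Several design methods are mixed in this list. Affinity was read by AlphaSeq, a pooled yeast mating assay with surface-displayed partners. Mating (16 h, 30 °C) was followed by selection of diploids and sequencing of their barcodes. A regression on co-assayed BCL2-family reference pairs converts the normalised counts of each replicate to an apparent Kd. The assay was run in six technical replicates.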

Each variant is given by its three heavy chain CDRs, as the data file delimits them; those of the parent are GFTLNSYGIS, VIYSDGRRTFYGDSVK, GRAAGTFDS.
Variants here have at most six changes.
Kd is apparent (estimated from mating counts) and averaged on the log scale over replicates with a signal. Smaller is tighter.
A pair that was not seen in any replicate is written "no signal"; this usually means weak binding, but a binder can also be missed.

For GFTLNEYGIS / VIYSDGRRTFYGDSVK / GQTAGTFDL, the assay gave 7.4 nM (6 of 6 replicates; controls 0 of 18).
For GFGLNSYGIS / VIYSDGRRTFYDDSVK / GRAAGTFDS, the assay gave 110 nM (3 of 6 replicates; controls 0 of 18).
For GFTLNEYGIS / VIYSDGRRTFYGDSVK / GRTAGTFDF, the assay gave 42 nM (2 of 6 replicates; controls 0 of 18).
For GFDLNSYGIS / VIYSDGRRTFYVDSVK / GREAGTFDS, the assay gave 10 nM (6 of 6 replicates; controls 0 of 18).
For GFSLNSYGIS / VIYSDGRRTFYMDSVK / GNTAGTFDS, the assay gave 2.9 nM (6 of 6 replicates; controls 0 of 18).
For GFTLNEYGIS / VIYSDGRRTFYSDSVK / GRLAGTFDS, the assay gave 710 pM (6 of 6 replicates; controls 0 of 18).
For GFTLNEYGIS / VIYSDGRRTFYGDYVK / ERAAVTFDQ, the assay gave no signal (0 of 6 replicates; controls 0 of 18).
For GFVLNQYGIS / VIYSDGRRTFYGDSVK / GRAAGTFDN, the assay gave no signal (0 of 6 replicates; controls 0 of 18).
For GFSLNSYGIS / VIYSDGRRTFYADSVK / GRVAGTFDK, the assay gave 2.3 nM (6 of 6 replicates; controls 1 of 18).
For GFDLNSYGIS / VIYSDGRRTFYIDSVK / GRNAGTFDS, the assay gave 2.7 nM (6 of 6 replicates; controls 0 of 18).
For GFNLNSYGIS / VIYSDGRRTFYQDSVK / GRLAGTFDS, the assay gave 21 nM (6 of 6 replicates; controls 0 of 18).
For GFNLNNYGIS / VIYSDGRRTFYGDSVK / GRTAGTFDS, the assay gave 3.5 nM (6 of 6 replicates; controls 0 of 18).
For GFSLNTYGIS / VIYSDGKRTFYADSVK / GRAAGTFDS, the assay gave 2.0 nM (6 of 6 replicates; controls 1 of 18).
For GFTLNSYGIS / VIYSDGHRTFYGDSVK / GRAAGFFDS, the assay gave no signal (0 of 6 replicates; controls 0 of 18).
For GFNLNSYGIS / VIYSDGRRTFYKDSVK / GWTAGTFDS, the assay gave 1.4 nM (6 of 6 replicates; controls 0 of 18).
For GFALNEYGIS / VIYSDGRRTMYGDSVK / GRNAGTFDS, the assay gave 7.5 nM (6 of 6 replicates; controls 0 of 18).
For GFTLNSYGIS / VIYSDGRRTSYSDSVK / GRAAGTFDS, the assay gave 6.8 nM (11 of 12 replicates; controls 1 of 36).
For GFDLNSYGIS / VIYSDGRRTFYGDPVK / GRTAGTFDS, the assay gave 2.3 nM (1 of 6 replicates; controls 0 of 18).
For GFNLNSYGIS / VIYSDGRRTFYADSVK / GRLAGTFDS, the assay gave 11 nM (6 of 6 replicates; controls 1 of 18).
For GFTLDSYGIS / VIYSDGRRTFYGGSVK / GRAAGTFDS, the assay gave no signal (0 of 6 replicates; controls 0 of 18).
For GFYLNEYGIS / VIYSDGRRTFYTDSVK / GRFAGTFDS, the assay gave 15 nM (6 of 6 replicates; controls 0 of 18).
For GFTLNDYGIS / VIYSDGRRTFYIDSVK / GLAAGTFDS, the assay gave 9.9 nM (6 of 6 replicates; controls 0 of 18).
For GFTLNEYGIS / VIYQDGRRTFYGDSVK / GRAAVTFDQ, the assay gave no signal (0 of 6 replicates; controls 0 of 18).
For GFTLNSYGIS / VIYSDGKRTFYGDSVK / GWVAGTFDL, the assay gave 9.8 nM (3 of 6 replicates; controls 0 of 18).
For GFELNSYGIS / VIYSDGRRTFYGDDVK / GVNAGTFDS, the assay gave 44 nM (5 of 6 replicates; controls 1 of 18).
For GFTLNSYYIS / VIYSDGRRTFYGDSVK / GQAAGTFDS, the assay gave no signal (0 of 6 replicates; controls 1 of 18).
For GFTLNSYGIS / VIYSDGMRTFYIDSVK / GRMALTFDS, the assay gave 9.2 nM (1 of 6 replicates; controls 0 of 18).
For GFTLNDYGIS / VIYSDGRRTFYGDSVK / GRHAGTFDS, the assay gave 26 nM (3 of 6 replicates; controls 0 of 18).
For GFTLNEYGIS / VIYSDGRRFFRGDSVK / GRAAVTFDQ, the assay gave no signal (0 of 6 replicates; controls 0 of 18).
For GFTLNSYGIS / VIYSDGRRTFYGDSVK / GRARGTFDW, the assay gave no signal (0 of 6 replicates; controls 0 of 18).
For GFTLNSYGIS / VIYADGRRTFYGDSVK / WRAAGLFDS, the assay gave no signal (0 of 6 replicates; controls 0 of 18).
For GLVLNSYGIS / VIYSDGRRNFYGDSVK / GRAAGTFDS, the assay gave no signal (0 of 6 replicates; controls 0 of 18).
For GFTLESYGIS / VIYADGRRTFYGDRVK / GRTAGTFDS, the assay gave 2.9 nM (6 of 6 replicates; controls 1 of 18).
For GYTYNQYGIS / VIYSDGRRTEYSDSVK / GRAAGFFDS, the assay gave no signal (0 of 6 replicates; controls 0 of 18).
For GFHLNSYGIS / VIYSDGRRTFYADSVK / GTAAGTFDS, the assay gave 9.7 nM (6 of 6 replicates; controls 0 of 18).
For GFNLNSYGIS / VIYSDGRRTFYADMVK / GNAAGTFDS, the assay gave 63 nM (1 of 6 replicates; controls 0 of 18).
For GFDLNSYGIS / VIYSDGRRTFYGDSVK / GRTAGTFDN, the assay gave 2.3 nM (6 of 6 replicates; controls 0 of 18).
For GFSLNSYGIS / VIYSDGRRTAYGDRVK / GRAAGTFDS, the assay gave 1.4 nM (6 of 6 replicates; controls 0 of 18).

Picked from the list: the 4 lowest averages where every replicate gave a value.

CDR-H1,CDR-H2,CDR-H3,Kd (apparent),replicates with signal,signal with controls
GFTLNEYGIS,VIYSDGRRTFYSDSVK,GRLAGTFDS,710 pM,6/6,0/18
GFNLNSYGIS,VIYSDGRRTFYKDSVK,GWTAGTFDS,1.4 nM,6/6,0/18
GFSLNSYGIS,VIYSDGRRTAYGDRVK,GRAAGTFDS,1.4 nM,6/6,0/18
GFSLNTYGIS,VIYSDGKRTFYADSVK,GRAAGTFDS,2.0 nM,6/6,1/18

The authors averaged sequences with at least three values out of six and counted those with two or fewer as poor binders.
Of ten entries with the parent sequence, four were seen in most replicates (averages 2.2 nM to 240 nM), three in one and three in none, so single entries are noisy.
A sequence measured in both rounds can read differently, since the two assays cover different ranges.
Nonspecific signal, from three strains lacking the peptide, appeared in 1% of pairings of all heavy chain designs, centred on 120 nM (5% of these signals below 7.0 nM); values are not corrected for it. Also given: how often the same scFv was detected with the empty control strains.
Where one sequence has several entries in the source, the replicates are pooled.